{"source": "paper PMC8486872", "about": "“A rational blueprint for the design of chemically-controlled protein switches” (Nature Communications, 2021)", "system": "SEAP expression in HEK293T cells", "assay": "Background signal of SEAP reporter and single-construct controls", "format": "cell-based", "details": "CDH3 columns", "procedure": "Supplementary Figure 7: Dose-dependence and reversibility characterization of CDHs in CDH- […]\na) Background signal of SEAP reporter in the absence of the CDH-TF system. HEK239T cells were transfected with SEAP reporter S132 and treated with 1 µM Drugs 12 hours post transfection.\nQuantification of SEAP was performed 24 hours after drug treatment. b) Drug specificity of CDH-TFs. […]\nBackground signal of SEAP reporter in the absence of the CDH-GEMS system. HEK293T cells were transfected with pLS566 SEAP reporter plasmids and treated with drugs. Quantification of SEAP was performed 24 hours post drug treatment. f) SEAP activity upon transfecting single or paired […]\nCDHs (1-red, 2-green and 3-blue) activate SEAP expression. g) Drug specificity test on CDH-GEMS.\nQuantification of SEAP activity of three CDHs with DMSO (dark color), specific (light color) and unspecific drug treatment (gray). […]\n(culture medium) in panels of b, c, f and g were collected every 12 hours. Values were normalized to zero based on the SEAP expression at time 0. a, b, e, f, g) The bar charts show the mean ± s.d. of n = 3 biologically independent samples overlaid with a scatter dot plot of the original data points.", "note": "Values joined by “and” are separate entries in the source; they are usually repeats but may differ in a detail not shown here. Equal entries are not always repeated.", "data": [{"substance": "mdm2", "values": [{"measurement": "Reporter signal, single constructs vs pair", "setting": "Suppl Fig 7f", "result": "17.4605 and 15.5138 and 13.0555"}, {"measurement": "Reporter signal, single constructs vs pair", "setting": "Suppl Fig 7g (so in the source)", "result": "17.4605 and 15.5138 and 13.0555"}]}]}
